# Assay results published in PubChem BioAssay AID957 (National Center for Advancing Translational Sciences (NCATS), 2007).
# Protein sequences, listed by entry. Tags and fused reporters are not part of them. Lines headed by an entry give the natural chain unless they say otherwise; changes in a name come on top.
# UniProt P06280: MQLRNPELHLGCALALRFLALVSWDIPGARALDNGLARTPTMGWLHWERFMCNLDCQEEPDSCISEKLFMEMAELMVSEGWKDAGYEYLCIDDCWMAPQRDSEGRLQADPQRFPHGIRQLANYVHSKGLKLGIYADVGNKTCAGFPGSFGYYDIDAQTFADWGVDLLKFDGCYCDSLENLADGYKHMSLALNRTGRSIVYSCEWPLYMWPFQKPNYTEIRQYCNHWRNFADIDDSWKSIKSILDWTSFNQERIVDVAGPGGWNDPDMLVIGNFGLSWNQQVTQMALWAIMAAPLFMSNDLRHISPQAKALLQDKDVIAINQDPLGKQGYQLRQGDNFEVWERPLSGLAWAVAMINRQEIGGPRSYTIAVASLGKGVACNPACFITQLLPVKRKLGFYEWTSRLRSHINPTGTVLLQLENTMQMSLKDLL
# This is one part of the list. Activity calls are given as the source filed them. Calls follow the shape of the dose curve; as a rule, active = well fitted curve in the direction sought with a large enough effect; inconclusive = small, poorly fitted or top-dose-only effect, or another doubt; inactive = no such curve, though single readings can be large or run the other way.
# Target: Alpha-galactosidase A (Homo sapiens) (UniProt P06280)
# Assay: Counterscreen for Glucocerebrosidase Inhibitors: qHTS Assay for Coffee Bean alpha-Galactosidase at pH 4.5;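 also: plate controls were enzyme alone for no effect and no enzyme for full effect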
# Conditions: purified coffee bean alpha-galactosidase, fluorogenic substrate; at 76.9 µM (top of the series)
# Summary of the method: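 Enzyme is added first (2 nM final), then compounds titrated from 0.7 nM to 77 uM, then 80 uM 4-methylumbelliferyl alpha-D-galactopyranoside; after 20 min at room temperature a pH 10 NaOH/glycine stop precedes fluorescence reading at 365/440 nm.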
row,SMILES,"activity change, negative = inhibition"
1,CN(C(=O)Cc1ccc(Cl)c(Cl)c1)[C@@H]1CC[C@@]2(CCCO2)C[C@H]1N1CCCC1,inactive: 1.5%
2,CN(CCCl)Cc1cc(Cl)c(NC2=NCCN2)c(Cl)c1,inactive: -0.236%
3,CN(C(=O)Cc1ccc(Cl)c(Cl)c1)[C@@H]1CCCC[C@H]1N1CCCC1,inactive: -2.82% [middle of 4 runs]
4,CN(C(=O)Cc1ccccc1)[C@@H]1CC[C@@]2(CCCO2)C[C@H]1N1CCCC1,inactive: 0.127%
